How the values were obtained:
rice plants = assay: Experiment 1: phytotoxicity to rice plants (pot test, emulsifiable concentrate); settings: 25 days
[1] = system: barnyard grass (Echinochloa crus-galli); assay: Experiment 1: herbicidal effects against barnyard grass (pot test, emulsifiable concentrate); assay type: in vivo; settings: 25 days
[2] = 1.5 leaf-stage of barnyard grass, 150 g/10a.
[3] = 1.5 leaf-stage of barnyard grass, 300 g/10a.
[4] = 1.5 leaf-stage of barnyard grass, 600 g/10a.
[5] = 3 leaf-stage of barnyard grass, 150 g/10a.
[6] = 3 leaf-stage of barnyard grass, 300 g/10a.
[7] = 3 leaf-stage of barnyard grass, 600 g/10a.

`CC1CCCCN1C(=O)SCCCl` (stereo not drawn) was tested, and the “phytotoxicity (rice plant)” value (rice plants; [2]) was 0 (less than 10%), the “phytotoxicity (rice plant)” value (rice plants; [3]) was 0 (less than 10%) and the “phytotoxicity (rice plant)” value (rice plants; [4]) was 2 (30 to 49%). For the same compound, the “phytotoxicity (rice plant)” value (rice plants; [5]) was 0 (less than 10%), the “phytotoxicity (rice plant)” value (rice plants; [6]) was 0 (less than 10%) and the “phytotoxicity (rice plant)” value (rice plants; [7]) was 1 (10 to 29%). For the same compound, the “herbicidal activity (barnyard grass)” value [1, 2] was 3 (50 to 69%), the “herbicidal activity (barnyard grass)” value [1, 3] was 4 (70 to 89%) and the “herbicidal activity (barnyard grass)” value [1, 4] was 5 (more than 90%). For the same compound, the “herbicidal activity (barnyard grass)” value [1, 5] was 1 (10 to 29%), the “herbicidal activity (barnyard grass)” value [1, 6] was 3 (50 to 69%) and the “herbicidal activity (barnyard grass)” value [1, 7] was 3 (50 to 69%).

— patent US4400199A, “Thiolcarbamate compounds and their use as herbicides” (priority 1981, dated 1983)
